Patent US20240166691A1, “PRODRUGS AND COMPOSITIONS FOR OPHTHALMOLOGY APPLICATIONS” (priority 2022, published 2024)

Details: lyophilized sample stored at 25° C., after 21 days

Cyclosporine-A-(N-benzyl-glycine)-linker-NH-PEG-2K TFA-salt
degradation of lyophilized sample: no degradation
